Source: US20090312349A1, “ANTI-INFLAMMATORY MEDICAMENTS” (priority 2004, published 2009)
pIC50: −log10 of the molar value.

The chains behind the UniProt entries cited, without tags or fusion partners.
UniProt Q16539, whole entry: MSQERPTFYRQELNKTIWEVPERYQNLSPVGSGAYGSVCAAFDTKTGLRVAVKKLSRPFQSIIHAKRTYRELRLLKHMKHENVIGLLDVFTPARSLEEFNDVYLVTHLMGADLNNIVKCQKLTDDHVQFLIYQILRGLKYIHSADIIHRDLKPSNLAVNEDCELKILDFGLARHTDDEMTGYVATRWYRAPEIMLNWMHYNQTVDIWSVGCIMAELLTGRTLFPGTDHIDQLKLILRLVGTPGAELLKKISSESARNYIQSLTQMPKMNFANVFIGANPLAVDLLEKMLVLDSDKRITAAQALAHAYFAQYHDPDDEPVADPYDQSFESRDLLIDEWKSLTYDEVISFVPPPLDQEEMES

The compounds below were run against T1, phospho p-38 alpha kinase (Homo sapiens, UniProt Q16539) (assay: P-38 alpha kinase assay (spectrophotometric, pyruvate kinase/lactate dehydrogenase coupled)). Conditions: Table 3; rates at […] to 2 h.
T1 construct: purchased Panvera
Format: biochemical
Method: In this assay, the oxidation of NADH was continuously measured spectrophometrically. […] The reaction was initiated by adding ATP. The absorption at 340 nm was monitored continuously for up to 4 hours at 30° C. on Polarstar Optima plate reader (BMG). The kinase activity (reaction rate) was calculated from the slope at the time frame from 1.5 h to 2 h.
For inhibition determinations, test compounds were incubated with the reaction mixture for ˜5 min before adding ATP to start the reaction. […] IC50 values were calculated from a series of % inhibition values determined at a range of concentrations of each inhibitor using Prism to process the data and fit inhibition curves. Generally, the rates obtained at the time frame of 1.5 h to 2 h were used for these calculations.

pIC50	SMILES
7.39	CC(C)(C)c1cc(NC(=O)Nc2ccc(Cl)cc2)n(-c2cccc(CN)c2)n1 [Example 287, 1-{1-[3-(aminomethyl)phenyl]-3-t-butyl-1H-pyrazol-5-yl}-3-(4-chloro-phenyl)urea]
6.98	CC(C)(C)c1cc(NC(=O)Nc2ccc3c(c2)OCO3)n(-c2cccc(CN)c2)n1 [Example 288, 1-{1-[3-(aminomethyl)phenyl]-3-t-butyl-1H-pyrazol-5-yl}-3-(benzo-[d][1,3]dioxol-5-yl)urea]
5.29	CCOC(=O)c1cccc(-n2nc(C(C)(C)C)cc2NC(=O)Nc2cccc(F)c2F)c1 [Example 291, ethyl 3-{3-t-butyl-5-[3-(2,3-difluorophenyl)ureido]-1H-pyrazol-1-yl}benzoate]
5.68	CC(C)(C)c1cc(NC(=O)Nc2ccc3c(c2)OCO3)n(-c2cccc(CO)c2)n1 [Example 294, 1-(benzo[d][1,3]dioxol-5-yl)-3-(3-t-butyl-1-(3-(hydroxymethyl)phenyl)-1H-pyrazol-5-yl)urea]
5.92	CC(C)(C)c1cc(NC(=O)Nc2ccc3c(c2)OCO3)n(-c2cccc(C(=O)O)c2)n1 [Example 295, 3-{5-[3-(benzo[d][1,3]dioxol-5-yl)ureido]-3-t-butyl-1H-pyrazol-1-yl}benzoic acid]
6.55	CCOC(=O)Cc1cccc(-n2nc(C(C)(C)C)cc2NC(=O)Nc2ccc3c(c2)OCO3)c1 [Example 296, ethyl 2-(3-{5-[3-(benzo[d][1,3]dioxol-5-yl)ureido]-3-t-butyl-1H-pyrazol-1-yl}phenyl)-acetate]
6.47	CC(C)(C)c1cc(NC(=O)Nc2ccc3c(c2)OCO3)n(-c2cccc(CC(N)=O)c2)n1 [Example 297, 1-{1-[3-(2-amino-2-oxoethyl)phenyl]-3-t-butyl-1H-pyrazol-5-yl}-3-(benzo[d][1,3]dioxol-5-yl)urea]
7.60	CC(C)(C)c1cc(NC(=O)Nc2ccc3c(c2)OCO3)n(-c2cccc(CC(=O)O)c2)n1 [Example 298, 2-(3-(5-[3-(benzo[1,3]dioxol-5-yl)ureido]-3-t-butyl-1H-pyrazol-1-yl)phenyl)acetic acid]
5.64	CN(C)C(=O)Cc1cccc(-n2nc(C(C)(C)C)cc2NC(=O)Nc2ccc3c(c2)OCO3)c1 [Example 299, 1-(benzo[d][1,3]dioxol-5-yl)-3-{3-t-butyl-1-[3-(2-(dimethylamino)-2-oxoethyl]phenyl}-1H-pyrazol-5-yl)urea]
6.60	CN(C)CCc1cccc(-n2nc(C(C)(C)C)cc2NC(=O)Nc2ccc3c(c2)OCO3)c1 [Example 300, 1-(benzo[d][1,3]dioxol-5-yl)-3-{3-t-butyl 1-(3-[2-(dimethylamino)ethyl]phenyl}-1H-pyrazol-5-yl)urea]
6.20	CC(C)(C)c1cc(NC(=O)Nc2ccc3c(c2)OCO3)n(-c2cccc(CCN)c2)n1 [Example 301, 1-{1-[3-(2-aminoethyl)phenyl]-3-t-butyl-1H-pyrazol-5-yl}-3-(benzo[d][1,3]dioxol-5-yl)urea]
